Laboratory results: PubChem BioAssay AID1379 (National Center for Advancing Translational Sciences (NCATS), 2008)
This is a selection; strong and weak results do not stand in their true shares. Activity calls are given as the source filed them. The call rests on the fitted dose curve; in most records, active means well fitted inhibition curve with a large enough effect; inconclusive means small, poorly fitted or top-dose-only effect; inactive means flat fitted curve, though single readings scatter.

Biological target: Luciferin 4-monooxygenase (Photuris pensylvanica) (UniProt Q27757)
Assay: Counterscreen for Luciferase (Kinase-Glo TM) Inhibition; further: nearly all actives have a fitted effect of over 60% in size
Conditions: ATP luminescence, 8 min; at 38.3 µM (top of the series)
Method: NCGC Assay Overview: NIH Molecular Libraries Screening Centers Network [MLSCN] NIH Chemical Genomics Center [NCGC] MLSCN Grant: None Luciferase (Kinase-Glo, Promega Corporation) was assayed for its ability to generate light using ATP and luciferin as substrates. The ATP concentration in the assay (10 uM) was within the linear range of enzyme activity for the assay conditions used.
NCGC Assay Protocol Summary: Four uL of substrate mix (final concentration, 50 mM imidazole pH 7.2, 50 mM KCl, 7 mM MgCl2, 10 uM ATP, 0.01% Tween 20, 0.05% BSA) was dispensed into white 1536 well plates. Twenty-three nL of compound was delivered by a pin tool and 2 uL of luciferase detection mix (Kinase-Glo, Promega)) was added. Following 8-minute incubation at ambient temperature, luminescence was measured by a ViewLux (Perkin Elmer) at 5 seconds exposure/plate.
On the % scale 0 is the no-effect control and ±100 the full control effect.

SMILES	activity change, negative = inhibition
CN(CCCl)CCCl	inactive: 0.299%
